Measured values reported in ChEMBL document CHEMBL3886269, “Pyrrolidine-fused thiadiazine dioxide compounds as BACE inhibitors, compositions, and their use” (2015).

Biological target: T1, Beta-secretase 2 (Homo sapiens, UniProt Q9Y5Z0)
T1 sequence (Q9Y5Z0 whole entry): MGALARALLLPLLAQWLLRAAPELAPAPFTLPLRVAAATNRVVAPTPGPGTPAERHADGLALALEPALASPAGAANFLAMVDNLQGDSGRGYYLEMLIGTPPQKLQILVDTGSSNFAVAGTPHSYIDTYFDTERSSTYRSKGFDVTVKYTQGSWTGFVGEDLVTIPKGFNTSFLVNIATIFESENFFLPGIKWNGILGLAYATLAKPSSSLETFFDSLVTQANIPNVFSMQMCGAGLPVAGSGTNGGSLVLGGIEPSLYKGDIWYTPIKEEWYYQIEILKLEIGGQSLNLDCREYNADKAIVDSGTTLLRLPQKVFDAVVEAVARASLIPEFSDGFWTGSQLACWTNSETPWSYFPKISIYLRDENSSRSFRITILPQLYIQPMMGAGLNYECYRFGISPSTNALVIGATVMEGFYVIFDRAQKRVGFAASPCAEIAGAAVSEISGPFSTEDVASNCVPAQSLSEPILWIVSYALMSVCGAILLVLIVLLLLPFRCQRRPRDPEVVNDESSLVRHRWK
Experiment: Time-Resolved Endpoint Proteolysis Assay: Inhibitor IC50s at purified human autoBACE-2 were determined in a time-resolved endpoint proteolysis assay that measures hydrolysis of the QSY7-[…]-Eu-amide FRET peptide substrate (BACE-HTRF assay). BACE-mediated hydrolysis of this peptide results in an increase in relative fluorescence (RFU) at 620 nm after excitation with 320 nm light.

Ki: 21 nM
SMILES: CCc1nc(N2CC3C(c4ccccc4)(C2)NC(=N)N(C)S3(=O)=O)nc(OC)c1F (racemic)
